Protein sequences, listed by entry. Tags and fused reporters are not part of them.
UniProt P32238, whole entry I329V/F330Y: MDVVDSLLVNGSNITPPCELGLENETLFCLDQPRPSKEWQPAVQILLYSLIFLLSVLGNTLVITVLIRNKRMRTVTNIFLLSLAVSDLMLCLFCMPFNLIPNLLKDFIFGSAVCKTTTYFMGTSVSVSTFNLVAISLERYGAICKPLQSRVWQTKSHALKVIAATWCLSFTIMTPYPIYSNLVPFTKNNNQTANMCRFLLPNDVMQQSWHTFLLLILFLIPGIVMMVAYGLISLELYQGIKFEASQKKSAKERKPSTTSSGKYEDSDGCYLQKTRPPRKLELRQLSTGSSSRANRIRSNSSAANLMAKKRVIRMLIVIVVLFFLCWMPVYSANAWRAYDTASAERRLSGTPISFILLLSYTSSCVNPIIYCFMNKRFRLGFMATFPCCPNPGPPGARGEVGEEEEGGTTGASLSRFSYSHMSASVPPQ
UniProt P32238, whole entry N98T: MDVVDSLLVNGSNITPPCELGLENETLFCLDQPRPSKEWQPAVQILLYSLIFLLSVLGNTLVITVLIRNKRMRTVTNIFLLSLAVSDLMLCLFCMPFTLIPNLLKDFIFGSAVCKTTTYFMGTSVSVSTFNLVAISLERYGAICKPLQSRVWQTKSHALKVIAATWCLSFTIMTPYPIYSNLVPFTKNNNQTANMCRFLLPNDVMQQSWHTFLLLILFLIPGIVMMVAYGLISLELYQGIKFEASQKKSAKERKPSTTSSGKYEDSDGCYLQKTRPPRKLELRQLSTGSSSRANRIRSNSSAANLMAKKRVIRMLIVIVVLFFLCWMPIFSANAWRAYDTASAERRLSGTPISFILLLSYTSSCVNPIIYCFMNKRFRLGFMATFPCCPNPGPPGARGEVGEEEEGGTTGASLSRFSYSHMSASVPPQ

According to paper PMC4790425 (Journal of medicinal chemistry, 2015):

Assays:
[1] = target: T1, CCK1R TM6 (I6.51V, F6.52Y) (Homo sapiens, UniProt P32238, F330Y/I329V); test: Intracellular calcium response, chimeric receptor CHO cells; type: cell-based
CCK1R TM2 (N2.61T) = CCK1R TM2 (N2.61T) (Homo sapiens, UniProt P32238, N98T); test: as above; type: cell-based
[2] = target: T1, CCK1R TM6 (I6.51V, F6.52Y); test: Competition binding with 125I-CCK

Row | Structure (SMILES) | EC50 [1] [nM] | EC50 (CCK1R TM2 (N2.61T)) [nM] | IC50 [2] [nM]
1 | CC(C)N(Cc1ccccc1)C(=O)CN1C(=O)[C@@H](Cc2c[nH]c3ccccc23)c2nnc(-c3ccccc3)n2-c2ccccc21 [CE-326597, N-benzyl-2-[(4S)-4-(1H-indol-3-ylmethyl)-5-oxo-1-phenyl-4,5-dihydro-6H-[1,2,4]triazolo[4,3-a][1,5]benzodiazepin-6-yl]-N-isopropylacetamide] | 41.7 | 0.525 | 
2 | Cc1cc(C)cc(C[C@H]2CCCCN2C(=O)CN2C(=O)[C@@H](Cc3n[nH]c4ccccc34)c3nnc(-c4ccccc4)n3-c3ccccc32)c1 [PF-04756956, (4S)-6-{2-[(2R)-2-(3,5-dimethylbenzyl)piperidin-1-yl]-2-oxoethyl}-4-(1H-indazol-3-ylmethyl)-1-phenyl-4H-[1,2,4]triazolo[4,3-a][1,5]benzodiazepin-5(6H)-one] | 69.2 | 0.288 | 70.8
